Measured values reported in ChEMBL document CHEMBL1148443, “Importance of phenolic address groups in opioid kappa receptor selective antagonists” (J Med Chem, 2004).

The chains behind the UniProt entries cited, without tags or fusion partners.
UniProt P33535, whole entry: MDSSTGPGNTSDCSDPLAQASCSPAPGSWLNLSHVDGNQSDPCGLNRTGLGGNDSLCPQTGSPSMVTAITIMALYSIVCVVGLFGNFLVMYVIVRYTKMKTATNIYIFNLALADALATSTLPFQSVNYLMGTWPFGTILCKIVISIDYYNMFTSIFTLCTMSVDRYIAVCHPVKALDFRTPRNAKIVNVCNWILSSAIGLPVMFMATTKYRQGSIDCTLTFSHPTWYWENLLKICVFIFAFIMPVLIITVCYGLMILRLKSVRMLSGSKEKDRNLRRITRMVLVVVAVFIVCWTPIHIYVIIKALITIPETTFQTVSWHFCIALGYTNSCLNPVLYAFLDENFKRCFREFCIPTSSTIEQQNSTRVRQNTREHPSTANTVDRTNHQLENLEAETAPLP

Biological target: Mu-type opioid receptor (Rattus norvegicus, UniProt P33535)
Test: Binding affinity of compound for Opioid receptor mu 1 was determined using [3H]DAMGO as radioligand from rat brain tissue
How it was run: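 Competitive binding assays. Mu and delta receptors came from rat brain membranes. Kappa receptors came from guinea pig caudate membranes. Test compounds displaced the receptor-selective radioligand.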

## Oc1ccc2c3c1O[C@H]1c4[nH]c5c(c4C[C@@]4(O)[C@@H](C2)N(CC2CC2)CC[C@]314)C[C@@]1(O)[C@H]2Cc3ccc(O)c4c3[C@@]1(CCN2CC1CC1)[C@H]5O4 [NORBINALTORPHIMINE]
  Ki: 8.3 nM
